Data: ChEMBL document CHEMBL1127100, “Structure-activity relationships of a series of glycine antagonists related to 5,7-dichlorokynurenic acid and 3-(2-carboxy-6-chloroindol-3-yl)acetic acid” (Bioorg Med Chem Lett, 1993)

Target: Glutamate NMDA receptor
Test: Tested for the ability to inhibit [3H]MK-801 binding to NMDA receptor of rat cortical membranes in the presence of glutamate (1 uM)

## O=C(O)c1cc(=O)c2ccccc2[nH]1 [TRANSTORINE]
  IC50: 40.3 µM
